Experimental data as given in ChEMBL document CHEMBL4184197 (Bioorg Med Chem, 2018).

Protein sequences, listed by entry. Tags and fused reporters are not part of them.
UniProt P11416, whole entry: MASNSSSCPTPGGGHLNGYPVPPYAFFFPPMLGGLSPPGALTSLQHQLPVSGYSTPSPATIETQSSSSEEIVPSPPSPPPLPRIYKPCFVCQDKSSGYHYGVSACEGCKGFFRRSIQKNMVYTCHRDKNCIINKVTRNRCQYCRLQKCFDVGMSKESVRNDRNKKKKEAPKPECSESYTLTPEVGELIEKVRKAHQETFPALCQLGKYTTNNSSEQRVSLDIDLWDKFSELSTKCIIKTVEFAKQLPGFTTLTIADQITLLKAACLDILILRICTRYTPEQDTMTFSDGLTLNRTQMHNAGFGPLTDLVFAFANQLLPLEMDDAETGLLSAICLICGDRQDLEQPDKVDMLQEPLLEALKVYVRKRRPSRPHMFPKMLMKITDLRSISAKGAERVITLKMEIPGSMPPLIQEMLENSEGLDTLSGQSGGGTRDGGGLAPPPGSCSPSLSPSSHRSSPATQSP

Biological target: Retinoic acid receptor alpha (Mus musculus) (UniProt P11416)
Assay: Transactivation of mouse Gal4-fused RARalpha-LBD expressed in COS-7 cells after 1 day by bright-Glo reagent based assay relative to control ATRA
Format: cell-based

CCOc1c(Cl)cc(C(=O)Nc2ccc(C(=O)O)c(C)c2)cc1Cl
Ratio EC50: 0.9
